{"source": "patent US4897384A", "about": "“Drug preparations of reduced toxicity” (priority 1986, dated 1990)", "system": "Swiss Webster mice", "settings": "mouse, in vivo", "data": [{"smiles": "O=P(O)(O)O[C@H]1[C@H](OP(=O)(O)O)[C@@H](OP(=O)(O)O)[C@H](OP(=O)(O)O)[C@@H](OP(=O)(O)O)[C@H]1OP(=O)(O)O", "note": "[Inositol hexaphosphate, inositol hexaphosphate]", "values": [{"measurement": "Effectiveness in reducing aminoglycoside toxicity (in words)", "value": "very effective in reducing the toxicity of streptomycin"}]}]}
